Drawing on PubChem BioAssay (NCI), this text covers growth for seven compounds.

Holding throughout (assay): NCI-60 one-dose screen, 48 h (100 = growth as untreated, 0 = no growth, -100 = all killed)
In one test the test system is DU-145 prostate. The settings on record: 10 µM unless noted.
In a further test the test system is K-562 leukemia. The settings on record: 10 µM unless noted.
In the next test the test system is MALME-3M melanoma. The settings on record: 10 µM unless noted.
Another test deals with MDA-MB-231 breast. The settings on record: 10 µM unless noted.
A further test deals with RXF 393 renal. The settings on record: 10 µM unless noted.
In a further test the test system is SF-268 CNS. The settings on record: 10 µM unless noted.
Another test concerns SF-295 CNS. The settings on record: 10 µM unless noted.
Another test deals with SF-539 CNS. The settings on record: 10 µM unless noted.
Another test concerns UACC-257 melanoma. The settings on record: 10 µM unless noted.
The next test has as its system M14 melanoma. The settings on record: 10 µM unless noted.
A further test relates to HCT-15 colon. The settings on record: 10 µM unless noted.
In a further test the test system is HT29 colon. The settings on record: 10 µM unless noted.
For another test, the system named is SNB-75 CNS. The settings on record: 10 µM unless noted.
In a further test the test system is SNB-19 CNS. The settings on record: 10 µM unless noted.
A further test has as its system U251 CNS. The settings on record: 10 µM unless noted.
The next test has as its system PC-3 prostate. The settings on record: 10 µM unless noted.
Another test has as its system SK-MEL-5 melanoma. The settings on record: 10 µM unless noted.
For the next test, the system named is UACC-62 melanoma. The settings on record: 10 µM unless noted.
The next test relates to LOX IMVI melanoma. The settings on record: 10 µM.
The subject of another test is SK-MEL-28 melanoma. The settings on record: 10 µM unless noted.

Only a part is listed here, and it is no random draw.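 Single-concentration screen, 48 h exposure, 96-well plates. Endpoint: percent growth. Below 10 = active.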 Calls of active or inactive are those of the source.

Take `S=P(Cl)(N1CCCCCC1)N1CC1` (stereo unspecified): the growth with DU-145 prostate is inactive: 110%; with K-562 leukemia, inactive: 104%; with MALME-3M melanoma it was inactive: 98.6%; in the test on MDA-MB-231 breast it was inactive: 100%; with RXF 393 renal it was inactive: 126%; in the test on SF-268 CNS, inactive: 104%. Moreover, the growth in the test on SF-295 CNS is inactive: 104%; in the test with SF-539 CNS, inactive: 97.3%; in the test on UACC-257 melanoma, inactive: 99.6%; with M14 melanoma, inactive: 103%; with HCT-15 colon, inactive: 103%; in the test on HT29 colon, inactive: 102%. Besides, the growth in the test on SNB-75 CNS was inactive: 87%; in the test on SNB-19 CNS it was inactive: 100%; in the test with U251 CNS it was inactive: 101%; in the test on PC-3 prostate, inactive: 94.4%; with SK-MEL-5 melanoma it was inactive: 99.5%; in the test on UACC-62 melanoma, inactive: 85.4%. Besides, the values for the growth in the test with LOX IMVI melanoma and with SK-MEL-28 melanoma were inactive: 100% and inactive: 106%, respectively.

As to `S=C(Nc1ccccc1)N(CCCl)CCCl`, the growth was inactive: 110% with DU-145 prostate; inactive: 101% in the test on K-562 leukemia; inactive: 108% with MALME-3M melanoma; inactive: 108% in the test with MDA-MB-231 breast; inactive: 106% in the test on RXF 393 renal; inactive: 106% in the test on SF-268 CNS. The growth with SF-295 CNS was inactive: 105%; in the test on SF-539 CNS it was inactive: 89.1%; in the test on UACC-257 melanoma, inactive: 104%; in the test on M14 melanoma, inactive: 99.4%; in the test on HCT-15 colon, inactive: 88.4%; in the test on HT29 colon, inactive: 90.4%. Besides, the growth in the test with SNB-75 CNS was inactive: 116%; with SNB-19 CNS, inactive: 102%; with U251 CNS it was inactive: 100%; in the test on PC-3 prostate, inactive: 91.1%; with SK-MEL-5 melanoma, inactive: 104%; with UACC-62 melanoma, inactive: 105%. Besides, the growth was inactive: 96.9% in the test with LOX IMVI melanoma and inactive: 104% with SK-MEL-28 melanoma.

`O=[N+]([O-])c1cccc(Oc2ccc([N+](=O)[O-])cc2[N+](=O)[O-])c1`: the growth in the test on DU-145 prostate was active: 9.62%; in the test on K-562 leukemia, inactive: 20.2%; in the test on MALME-3M melanoma it was inactive: 40.4%; in the test with MDA-MB-231 breast it was inactive: 27.4%; in the test on RXF 393 renal, active: 8.19%; in the test with SF-268 CNS it was inactive: 18.2%. Besides, the growth with SF-295 CNS was active: -13.9%; in the test on SF-539 CNS, active: 6.24%; in the test with UACC-257 melanoma, inactive: 39.7%; with M14 melanoma, active: 7.47%; in the test with HCT-15 colon, inactive: 12.5%; in the test with HT29 colon, active: -33.1%. Further, the growth with SNB-19 CNS was inactive: 57.8%; in the test with U251 CNS it was inactive: 25.3%; in the test with PC-3 prostate it was inactive: 25.9%; in the test on SK-MEL-5 melanoma, inactive: 23%; in the test on UACC-62 melanoma, inactive: 31.1%; with LOX IMVI melanoma, active: 7.73%. Further, the growth in the test with SK-MEL-28 melanoma was inactive: 35.3%.

Turning to `CCOP(=O)(Nc1ccc(C)cn1)OCC`, the growth with DU-145 prostate was inactive: 109%; with K-562 leukemia, inactive: 104%; in the test with MALME-3M melanoma it was inactive: 130%; in the test on MDA-MB-231 breast it was inactive: 148%; in the test with RXF 393 renal it was inactive: 101%; with SF-268 CNS it was inactive: 107%. Besides, the growth was inactive: 112% in the test with SF-295 CNS; inactive: 101% in the test with SF-539 CNS; inactive: 92% in the test with UACC-257 melanoma; inactive: 105% in the test with M14 melanoma; inactive: 95.1% with HCT-15 colon; inactive: 96.8% in the test on HT29 colon. Moreover, the growth is inactive: 84.7% with SNB-75 CNS; inactive: 99% in the test on SNB-19 CNS; inactive: 106% with U251 CNS; inactive: 95.4% with SK-MEL-5 melanoma; inactive: 113% with UACC-62 melanoma; inactive: 102% in the test with LOX IMVI melanoma. Also, in the test with SK-MEL-28 melanoma, the growth is inactive: 118%.

Regarding `CC1(CCC2(C)N=C(NN=C(CCl)CCl)SP2(=O)Nc2ncccn2)N=C(NN=C(CCl)CCl)SP1(=O)Nc1ncccn1` (stereo unspecified), the growth with DU-145 prostate is inactive: 110% [100 µM]; in the test on K-562 leukemia, inactive: 107% [100 µM]; in the test with MALME-3M melanoma it was inactive: 100% [100 µM]; in the test on MDA-MB-231 breast, inactive: 108% [100 µM]; with RXF 393 renal, inactive: 98% [100 µM]; in the test on SF-268 CNS it was inactive: 100% [100 µM]. The growth in the test on SF-295 CNS is inactive: 110% [100 µM]; with SF-539 CNS, inactive: 103% [100 µM]; in the test on UACC-257 melanoma it was inactive: 94.7% [100 µM]; with M14 melanoma, inactive: 104% [100 µM]; in the test with HCT-15 colon, inactive: 108% [100 µM]; in the test on HT29 colon, inactive: 105% [100 µM]. Moreover, the growth in the test on SNB-75 CNS was inactive: 81.6% [100 µM]; with SNB-19 CNS, inactive: 105% [100 µM]; in the test with U251 CNS, inactive: 98.2% [100 µM]; with PC-3 prostate, inactive: 94.7% [100 µM]; in the test on SK-MEL-5 melanoma it was inactive: 103% [100 µM]; in the test with UACC-62 melanoma, inactive: 98.2% [100 µM]. The growth in the test on SK-MEL-28 melanoma was inactive: 108% [100 µM].

With `NC(=S)N/N=C/c1ccc(N(CCF)CCCl)cc1`, the growth with DU-145 prostate was inactive: 113%; in the test on K-562 leukemia it was inactive: 87.6%; in the test with MALME-3M melanoma it was inactive: 99.8%; in the test with MDA-MB-231 breast, inactive: 93.4%; with RXF 393 renal, inactive: 101%; with SF-268 CNS, inactive: 118%. For the same compound, the growth with SF-295 CNS is inactive: 95.8%; in the test with SF-539 CNS it was inactive: 102%; in the test with UACC-257 melanoma, inactive: 82%; in the test with M14 melanoma, inactive: 103%; with HCT-15 colon, inactive: 95.5%; with HT29 colon, inactive: 89.3%. Besides, the growth in the test on SNB-75 CNS was inactive: 70.1%; with SNB-19 CNS, inactive: 102%; in the test on U251 CNS, inactive: 88.4%; in the test on PC-3 prostate, inactive: 75.2%; in the test on SK-MEL-5 melanoma, inactive: 97.2%; in the test on UACC-62 melanoma, inactive: 93.8%. Also, the results for the growth with LOX IMVI melanoma and in the test on SK-MEL-28 melanoma were inactive: 97.3% and inactive: 98.5%, respectively.

Take `O=[As]c1ccc(S(=O)(=O)Nc2ccccc2)cc1` (stereo unspecified): the growth was inactive: 90.6% in the test on DU-145 prostate; active: -16.2% with K-562 leukemia; active: -65.9% in the test on MALME-3M melanoma; inactive: 27.3% in the test with MDA-MB-231 breast; active: -19.6% in the test on RXF 393 renal; inactive: 62.7% in the test on SF-268 CNS. Also, the growth is inactive: 105% with SF-295 CNS; inactive: 19.9% in the test with SF-539 CNS; inactive: 19.8% with UACC-257 melanoma; inactive: 72.1% in the test with M14 melanoma; active: -42.1% in the test on HCT-15 colon; inactive: 66.5% in the test with HT29 colon. For the same compound, the growth in the test on SNB-75 CNS was inactive: 63.9%; in the test with U251 CNS it was inactive: 27%; in the test with PC-3 prostate, inactive: 62.1%; with SK-MEL-5 melanoma, inactive: 27.8%; with UACC-62 melanoma, active: 4.74%; with LOX IMVI melanoma, active: -27.8%. Moreover, the growth with SK-MEL-28 melanoma was active: -69%.
